Where two headings read alike, the source gives them in different places.
Details: centrifuged 13,000 rpm 5 min

| Substance | IL's solubility in base oil (OSP-32) [% wt. %] | IL's solubility in base oil (PAG (50-HB-170)) [% wt. %] |
| --- | --- | --- |
| trioctylammonium salicylate [[N888H][C7H5O3]] | >5 | >5 |
| tributyl(methyl)ammonium dibutyl phosphate [[N4441][DBP]] | >5 | >5 |
| Trioctylammonium di(2-ethylhexyl)phosphate [[N888H][DEHP], reference compound] | >5 | >5 |

From US11760766B2, “Ionic liquids containing quaternary ammonium and phosphonium cations, and their use as environmentally friendly lubricant additives” (UT-Battelle, LLC, priority 2020, dated 2023)
